Measured values published in patent US20140343165A1, “PLANT PROTECTION AGENT” (priority 2010, published 2014).

Tested on: Erwinia amylovora
Assay: In vitro infection tests on apple blossoms
Procedure: In these tests, streptomycin was used as a positive control.
The in vitro tests on apple blossoms represented the natural course of infection and were conducted as follows: blooming apple blossoms were cut and further cultivated standing in a sterile sugar solution in transparent plastic containers. […] Following another 35 hours of incubation, the blossoms were wet by spraying on water. The infection rate was determined after 8 to 10 days of incubation at 22° C. and 70% relative humidity.

CC1=CC(=O)c2c(O)cccc2C1=O [Plumbagin, 5-hydroxy-2-methyl-1,4-naphthoquinone]
phyotoxic (0.1 mM): no | phyotoxic (0.5 mM): yes
